Source: US20260137703A1

Amino acid sequences for entries named in this document (tags omitted). A change or cut given only in a name is not applied to a line headed by its entry. Residues count along the entry.
UniProt P00533, 25-1210 limits assumed: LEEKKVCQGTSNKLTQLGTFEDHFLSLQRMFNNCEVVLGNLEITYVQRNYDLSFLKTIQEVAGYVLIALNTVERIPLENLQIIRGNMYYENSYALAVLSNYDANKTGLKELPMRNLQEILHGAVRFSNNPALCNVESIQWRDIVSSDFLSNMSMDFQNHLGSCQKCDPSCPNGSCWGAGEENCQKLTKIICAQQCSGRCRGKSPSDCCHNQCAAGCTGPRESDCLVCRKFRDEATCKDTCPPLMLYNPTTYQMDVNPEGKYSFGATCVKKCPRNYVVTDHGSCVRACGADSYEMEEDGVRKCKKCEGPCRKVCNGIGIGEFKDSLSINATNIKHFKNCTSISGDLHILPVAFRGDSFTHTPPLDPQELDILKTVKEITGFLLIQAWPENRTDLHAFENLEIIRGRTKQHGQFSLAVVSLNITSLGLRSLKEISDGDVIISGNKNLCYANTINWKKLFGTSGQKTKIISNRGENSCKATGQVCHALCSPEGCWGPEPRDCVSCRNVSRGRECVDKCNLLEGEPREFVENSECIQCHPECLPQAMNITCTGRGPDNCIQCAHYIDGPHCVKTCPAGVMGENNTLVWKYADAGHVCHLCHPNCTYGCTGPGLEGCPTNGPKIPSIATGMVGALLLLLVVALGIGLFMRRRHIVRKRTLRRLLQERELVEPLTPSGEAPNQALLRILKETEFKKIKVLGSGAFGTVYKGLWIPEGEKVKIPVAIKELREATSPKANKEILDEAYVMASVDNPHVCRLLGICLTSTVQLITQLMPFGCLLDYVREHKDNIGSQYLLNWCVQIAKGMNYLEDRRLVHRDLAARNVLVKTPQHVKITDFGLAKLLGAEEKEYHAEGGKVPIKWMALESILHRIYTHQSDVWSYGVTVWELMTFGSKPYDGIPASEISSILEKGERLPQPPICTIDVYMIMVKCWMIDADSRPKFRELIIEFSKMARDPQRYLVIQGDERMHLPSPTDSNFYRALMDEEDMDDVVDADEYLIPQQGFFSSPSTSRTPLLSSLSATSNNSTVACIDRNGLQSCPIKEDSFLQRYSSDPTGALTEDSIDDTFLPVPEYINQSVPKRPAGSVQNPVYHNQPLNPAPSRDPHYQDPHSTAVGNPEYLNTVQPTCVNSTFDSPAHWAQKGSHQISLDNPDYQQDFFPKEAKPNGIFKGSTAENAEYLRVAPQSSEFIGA
UniProt P00533, 25-1210 T790M/L858R limits assumed: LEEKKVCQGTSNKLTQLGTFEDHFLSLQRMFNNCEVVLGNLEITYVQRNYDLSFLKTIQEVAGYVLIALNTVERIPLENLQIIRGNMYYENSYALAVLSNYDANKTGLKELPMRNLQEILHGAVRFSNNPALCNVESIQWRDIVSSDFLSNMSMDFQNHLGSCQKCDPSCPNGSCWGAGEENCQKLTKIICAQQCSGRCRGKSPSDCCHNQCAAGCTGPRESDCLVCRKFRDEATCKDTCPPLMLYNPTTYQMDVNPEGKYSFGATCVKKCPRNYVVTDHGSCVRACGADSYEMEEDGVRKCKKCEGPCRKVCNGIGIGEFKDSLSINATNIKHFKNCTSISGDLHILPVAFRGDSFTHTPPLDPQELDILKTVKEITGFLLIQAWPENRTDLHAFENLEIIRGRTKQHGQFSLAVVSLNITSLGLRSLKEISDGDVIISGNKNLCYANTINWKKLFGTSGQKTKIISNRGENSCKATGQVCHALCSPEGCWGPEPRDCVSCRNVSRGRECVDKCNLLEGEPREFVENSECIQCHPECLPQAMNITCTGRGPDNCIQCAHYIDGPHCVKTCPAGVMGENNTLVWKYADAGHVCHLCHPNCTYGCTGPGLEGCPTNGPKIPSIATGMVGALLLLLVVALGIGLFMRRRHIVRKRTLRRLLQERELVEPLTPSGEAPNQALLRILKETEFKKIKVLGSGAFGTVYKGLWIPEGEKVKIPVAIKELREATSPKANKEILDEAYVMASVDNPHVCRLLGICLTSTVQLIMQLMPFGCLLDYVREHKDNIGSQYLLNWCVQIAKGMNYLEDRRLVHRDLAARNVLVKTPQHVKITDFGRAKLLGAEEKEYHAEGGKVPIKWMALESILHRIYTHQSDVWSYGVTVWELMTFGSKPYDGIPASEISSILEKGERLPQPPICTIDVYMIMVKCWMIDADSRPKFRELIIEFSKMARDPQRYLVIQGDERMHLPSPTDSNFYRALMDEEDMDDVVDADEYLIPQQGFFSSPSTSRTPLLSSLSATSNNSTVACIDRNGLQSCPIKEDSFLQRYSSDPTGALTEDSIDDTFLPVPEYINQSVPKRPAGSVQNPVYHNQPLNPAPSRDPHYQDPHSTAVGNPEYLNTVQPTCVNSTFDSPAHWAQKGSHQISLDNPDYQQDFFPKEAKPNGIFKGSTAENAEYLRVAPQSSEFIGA
UniProt P00533, 25-1210 T790M/C797S/L858R limits assumed: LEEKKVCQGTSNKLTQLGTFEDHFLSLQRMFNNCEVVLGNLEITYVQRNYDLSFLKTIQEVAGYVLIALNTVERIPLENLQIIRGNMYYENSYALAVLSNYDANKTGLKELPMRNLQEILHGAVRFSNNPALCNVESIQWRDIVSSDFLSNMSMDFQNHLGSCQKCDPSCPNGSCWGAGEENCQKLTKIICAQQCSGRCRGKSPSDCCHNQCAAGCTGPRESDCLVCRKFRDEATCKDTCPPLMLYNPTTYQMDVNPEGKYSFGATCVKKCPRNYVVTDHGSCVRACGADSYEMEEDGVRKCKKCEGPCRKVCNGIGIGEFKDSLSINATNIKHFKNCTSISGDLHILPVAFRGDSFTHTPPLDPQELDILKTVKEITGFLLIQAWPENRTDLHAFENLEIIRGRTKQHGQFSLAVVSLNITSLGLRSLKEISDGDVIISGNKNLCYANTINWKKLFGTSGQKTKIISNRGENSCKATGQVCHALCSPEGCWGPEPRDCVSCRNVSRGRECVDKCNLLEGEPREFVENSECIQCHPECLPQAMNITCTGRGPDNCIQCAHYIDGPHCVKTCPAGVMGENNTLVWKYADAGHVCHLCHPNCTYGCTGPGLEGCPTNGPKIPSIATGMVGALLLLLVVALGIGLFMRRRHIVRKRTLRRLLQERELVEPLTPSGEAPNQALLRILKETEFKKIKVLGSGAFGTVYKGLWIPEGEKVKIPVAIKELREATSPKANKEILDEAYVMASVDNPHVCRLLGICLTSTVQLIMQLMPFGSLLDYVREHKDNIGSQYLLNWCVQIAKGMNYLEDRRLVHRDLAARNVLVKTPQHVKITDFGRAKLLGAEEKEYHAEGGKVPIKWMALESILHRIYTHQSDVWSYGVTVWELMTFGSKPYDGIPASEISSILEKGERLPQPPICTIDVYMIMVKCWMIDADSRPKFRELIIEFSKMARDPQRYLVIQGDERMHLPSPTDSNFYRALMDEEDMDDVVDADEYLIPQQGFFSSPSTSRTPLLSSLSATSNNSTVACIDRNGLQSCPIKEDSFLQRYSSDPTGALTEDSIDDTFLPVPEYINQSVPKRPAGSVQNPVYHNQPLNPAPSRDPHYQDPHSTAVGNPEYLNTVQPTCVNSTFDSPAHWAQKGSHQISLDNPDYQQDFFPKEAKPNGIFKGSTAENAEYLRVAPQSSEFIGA

What was measured:
[1] = target: Phospho-EGFR (Tyr1068) in H1975 cells (Homo sapiens, UniProt P00533, L858R/T790M); assay: HTRF pEGFR/total EGFR in H1975 cells; settings: read-out: H1975, ratio pEGFR/total EGFR, compound 3 hours
[2] = target: Phospho-EGFR (Tyr1068) in H1975 C797S cells (CRISPR-edited EGFR C797S) (Homo sapiens, UniProt P00533, C797S/L858R/T790M); assay: HTRF pEGFR/total EGFR in H1975 C797S cells; settings: read-out: H1975-C797S, ratio pEGFR/total EGFR, compound 3 hours
[3] = target: Phospho-EGFR (Tyr1068) in A431 cells (Homo sapiens, UniProt P00533); assay: HTRF pEGFR/total EGFR in A431 cells with EGF stimulation; settings: read-out: A431, ratio pEGFR/total EGFR, compound 2.5 hours then 100 ng/ml EGF 30 mins

Measured: IC50

C#Cc1cc(=O)n(-c2ccccc2)c2nc(NC3CCN(C4CCN(C)CC4)CC3)ncc12
> 3000 nM: [1] | [2] | [3]
